Literature values, collected in patent publication US10905897B2, “Synergistic treatment methodologies using light therapy” (Neuro-Laser Foundation, Inc., priority 2016, dated 2021).

Tested on: depressive symptoms and suicidal ideation
Settings: ketamine 0.5 mg/kg infused over a 30-40 minute period, single infusion; cited from earlier work

In the case of CNC1(c2ccccc2Cl)CCCCC1=O (stereo not shown) [ketamine], the “patients with rapid reduction in depressive symptoms and suicidal ideation” value is listed as 60-75%.
